Entries after “also recorded” stand apart in the source; their conditions may differ.
Target: ECE-1 (Homo sapiens, UniProt P42892)
Settings: 10 nmol peptide in 750 µl 0.2 M acetate buffer pH 5.5 (GLP-1 also at neutral pH), 0.25 µg recombinant ECE-1, 37 °C, up to 24 h, RP-HPLC C18, UV 214 nm, peak area with versus without enzyme, n = 2-3

Protein sequences, listed by entry. Tags and fused reporters are not part of them.
UniProt P42892, whole entry, species assumed: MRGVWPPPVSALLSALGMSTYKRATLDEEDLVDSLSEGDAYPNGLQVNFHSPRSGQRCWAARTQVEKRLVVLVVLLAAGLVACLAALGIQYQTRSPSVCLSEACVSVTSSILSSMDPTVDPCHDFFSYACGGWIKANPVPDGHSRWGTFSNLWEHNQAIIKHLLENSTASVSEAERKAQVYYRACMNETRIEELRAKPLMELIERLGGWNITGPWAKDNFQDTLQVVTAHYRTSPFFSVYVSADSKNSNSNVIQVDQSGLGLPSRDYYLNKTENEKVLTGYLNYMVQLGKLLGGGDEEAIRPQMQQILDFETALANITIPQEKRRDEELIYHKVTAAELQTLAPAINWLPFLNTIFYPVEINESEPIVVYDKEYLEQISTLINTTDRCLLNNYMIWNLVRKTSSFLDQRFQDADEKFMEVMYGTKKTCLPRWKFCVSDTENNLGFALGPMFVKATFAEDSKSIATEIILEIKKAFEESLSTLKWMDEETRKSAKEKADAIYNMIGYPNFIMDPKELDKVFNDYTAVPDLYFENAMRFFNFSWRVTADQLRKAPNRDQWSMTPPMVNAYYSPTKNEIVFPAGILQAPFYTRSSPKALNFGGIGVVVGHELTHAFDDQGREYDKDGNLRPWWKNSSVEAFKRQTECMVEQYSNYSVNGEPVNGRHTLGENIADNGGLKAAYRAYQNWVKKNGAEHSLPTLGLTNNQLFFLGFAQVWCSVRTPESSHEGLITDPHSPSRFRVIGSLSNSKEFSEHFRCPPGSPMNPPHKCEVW

SMILES: CC[C@H](C)[C@H](NC(=O)[C@H](Cc1ccccc1)NC(=O)[C@H](CCC(=O)O)NC(=O)[C@H](CCCCN)NC(=O)[C@H](C)NC(=O)[C@H](C)NC(=O)[C@H](CCC(N)=O)NC(=O)CNC(=O)[C@H](CCC(=O)O)NC(=O)[C@H](CC(C)C)NC(=O)[C@H](Cc1ccc(O)cc1)NC(=O)[C@H](CO)NC(=O)[C@H](CO)NC(=O)[C@@H](NC(=O)[C@H](CC(=O)O)NC(=O)[C@H](CO)NC(=O)[C@@H](NC(=O)[C@H](Cc1ccccc1)NC(=O)[C@@H](NC(=O)CNC(=O)[C@H](CCC(=O)O)NC(=O)[C@H](C)NC(=O)[C@@H](N)Cc1c[nH]cn1)[C@@H](C)O)[C@@H](C)O)C(C)C)C(=O)N[C@@H](C)C(=O)N[C@@H](Cc1c[nH]c2ccccc12)C(=O)N[C@@H](CC(C)C)C(=O)N[C@H](C(=O)N[C@@H](CCCCN)C(=O)NCC(=O)N[C@@H](CCCNC(=N)N)C(=O)N1CCC[C@H]1C(=O)N[C@@H](CO)C(=O)N[C@@H](CO)C(=O)NCC(=O)N[C@@H](C)C(=O)N1CCC[C@H]1C(=O)N1CCC[C@H]1C(=O)N1CCC[C@H]1C(=O)N[C@@H](CO)C(N)=O)C(C)C [Chi1]
- In vitro peptide degradation by / resistance to ECE-1 (in words): partial increase in ECE-1 resistance; also recorded: ECE-1-sensitive
